Measurements: publication PMC9960827, “Cloning and Characterization of Trypanosoma congolense and T. vivax Nucleoside Transporters Reveal the Potential of P1-Type Carriers for the Discovery of Broad-Spectrum Nucleoside-Based Therapeutics against Animal African Trypanosomiasis” (International Journal of Molecular Sciences, 2023)

System: T. congolense 6C3
Format: cell-based, Trypanosoma congolense
Conditions: resistance factor = EC50 (test strain)/EC50(control strain)
Protocol: EC50 values were determined by plotting to an equation for a sigmoid curve with variable slope (GraphPad Prism 8). All values were the average of at least three independent determinations on different days.

Nc1ncnc2c1ccn2[C@@H]1O[C@H](CO)[C@@H](O)[C@H]1O [Tubercidin, 7-deazaadenosine]
T. congolense 6C3 RF: 0.58
